Key:
[1] = test system: GILZ (glucocorticoid-induced leucine zipper); assay: qRT-PCR of GILZ gene expression in CHO cells; format: cell-based, Chinese hamster
Method: TaqMan® 5′-nuclease real-time quantitative RT-PCR assay was performed to verify the upregulation of GILZ by DEX. Total RNA, purified from each triplicate culture with and without 1 μM DEX using the RNeasy® midi kit as described above. Purified RNA was treated with RNasefree DNaseI (Qiagen) and then used as a template to synthesize the first-strand cDNA using RT^2 First Strand Kit (SA Biosciences, Frederick, Md.). Expression of GILZ was quantitatively determined using GILZ specific TaqMan MGB probe (6-FAM-AGAGGACTTCACGTGT) and primers (Forward: 5-[…]-3 and Reverse: 5-TGGTGGGTTTGGCATTCAA-3). 20 ng of cDNA was amplified using 900 nM primers and 250 nM probe in 1× TaqMan Fast Universal PCR Master Mix (Applied Biosystems, Carlsbad, Calif.). Reactions were run in triplicate on the Applied Biosystems 7500 Fast Real-Time PCR System using the universal cycling parameters (20 s 95° C., 40 cycles of 3 s 95° C., 30 s 60° C.). Parallel reactions were set up on the same plate analyzing β-Actin in each sample as an endogenous control. The threshold cycle of each gene was normalized against the threshold cycle of “housekeeping gene” […]. Normalized changes in gene expression with respect to the control were calculated using delta-delta threshold cycle method (Livak and Schmittgen, 2001).
GILZ was analyzed using qRT-PCR to validate the gene expression profiles obtained by microarray analysis. RNA samples from day 5 and 8 for triplicate DEX treated and untreated cultures were applied in TaqMan® qPCR quantification. Parallel reactions were set up on the same plate analyzing β-Actin in each sample as an endogenous control.

[2] = test system: CHO DG44 cell line expressing the fusion glycoprotein; assay: Shake flask CHO culture: total sialic acid content, N-linked and O-linked oligosaccharide profile of the secreted fusion glycoprotein; format: cell-based, Chinese hamster
Method: The CHO cell line used in this study was originally subcloned from DG44 parental cells and cultured in a proprietary protein-free growth medium.
The experiments were carried out in 250-mL shake flasks (VWR international) with starting volumes of 100 mL and initial cell densities of 6×10^5 cells/mL. The cultures were placed on a shaker platform (VWR international) at 150 rpm and maintained at 37° C. and 6% CO2 for ten days. The cultures were sampled daily and the pH was adjusted as needed using 1M sodium carbonate and fed with glucose and glutamine every two days in order to maintain them at adequate levels. Cell density and viability were measured offline using a Cedex automated cell counter (Innovatis AG, Bielefeld, Germany). Culture pH and concentrations for glucose and glutamine were measured off-line using a Bioprofile Analyzer 400 (Nova Biomedical Corporation, Waltham, Mass.).
The sialic acid to recombinant protein molar ratio was calculated by determining the sialic acid and recombinant protein concentrations. […] The protein concentrations were determined by UV absorbance at 280 nm. […]
This study was performed in duplicate 250-mL shake flasks using the culture conditions as described above. […] Cultures were harvested on day 10, and the fusion protein was purified using a protein A column and analyzed for total sialic acid content, O-linked sialic acid content and the N-linked profile.

## C[C@@H]1C[C@H]2[C@@H]3CCC4=CC(=O)C=C[C@]4(C)[C@@]3(F)[C@@H](O)C[C@]2(C)[C@@]1(O)C(=O)CO [DEX, dexamethasone]
[1]; 0.1 μM DEX, with 1 μM RU-486
  fold change of GILZ gene expression: 1.8±0.9
[1]; 0.1 μM DEX, without RU-486
  fold change of GILZ gene expression: 9.0±1.9
[1]; 1 μM DEX, with 1 μM RU-486
  fold change of GILZ gene expression: 2.3±1.0
[1]; 1 μM DEX, without RU-486
  fold change of GILZ gene expression: 11.3±3.0
[2]; 0.1 μM DEX, without RU-486
  normalized total sialic acid content: 15.1±0.1
[2]; DEX 1.0 μM added day 2, harvest day 10
  Percent increase of N-link-Tri and tetra-: 15.9%

From patent publication US10030064B2, “Mammalian cell culture processes for protein production” (priority 2009, dated 2018)
